Reference: patent publication US7112600B1, “Fused-ring compounds and use thereof as drugs” (Japan Tobacco Inc., priority 1999, dated 2006)
Where a name gives a salt, the structure may show the parent alone.

The chains behind the UniProt entries cited, without tags or fusion partners. Residues count along the entry.
UniProt P26663, 2420-3010: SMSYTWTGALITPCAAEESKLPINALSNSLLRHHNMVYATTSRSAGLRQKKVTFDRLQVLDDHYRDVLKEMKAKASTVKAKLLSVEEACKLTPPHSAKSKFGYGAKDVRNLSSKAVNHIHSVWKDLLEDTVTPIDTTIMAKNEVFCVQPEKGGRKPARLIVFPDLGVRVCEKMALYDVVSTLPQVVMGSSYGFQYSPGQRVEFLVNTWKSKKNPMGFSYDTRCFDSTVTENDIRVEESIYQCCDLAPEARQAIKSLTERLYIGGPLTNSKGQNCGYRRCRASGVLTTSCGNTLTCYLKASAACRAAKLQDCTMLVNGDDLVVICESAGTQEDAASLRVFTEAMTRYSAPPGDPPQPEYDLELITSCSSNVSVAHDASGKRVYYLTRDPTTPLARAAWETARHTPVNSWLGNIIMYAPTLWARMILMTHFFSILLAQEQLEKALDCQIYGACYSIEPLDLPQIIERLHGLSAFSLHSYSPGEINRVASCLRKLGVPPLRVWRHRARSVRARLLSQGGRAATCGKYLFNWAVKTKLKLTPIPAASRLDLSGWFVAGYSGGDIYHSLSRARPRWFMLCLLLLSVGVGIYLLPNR

Molecular target: T1, HCV polymerase (Hepatitis C virus genotype 1b, UniProt P26663)
T1 construct: a region encoding NS5B (591 amino acids; J Virol 1991 Mar, 65(3), 1105-13) was amplified by PCR; 6 His (N); made in house; host or cells: Escherichia coli
Assay: biochemical
Details: read-out: HCV polymerase inhibitory activity IC50
Excerpt: The evaluation of the HCV polymerase inhibitory activity of the compound of the present invention is explained in the following. This polymerase is an enzyme coded for by the non-structural protein region called NS5B on the RNA gene of HCV (EMBO J., 15:12-22, 1996).
i) Preparation of enzyme (HCV polymerase)
Using, as a template, a cDNA clone corresponding to the full length RNA gene of HCV BK strain obtained from the blood of a patient with hepatitis C, a region encoding NS5B (591 amino acids; J Virol 1991 Mar, 65(3), 1105-13) was amplified by PCR. The objective gene was prepared by adding a 6 His tag {base pair encoding 6 continuous histidine (His)} to the 5′ end thereof and transformed to Escherichia coli. The Escherichia coli capable of producing the objective protein was cultured. The obtained cells were suspended in a buffer solution containing a surfactant and crushed in a microfluidizer. […]
10% Trichloroacetic acid at 4° C. and 1% sodium pyrophosphate solution (150 μl) were added to this reaction mixture to stop the reaction. […] A liquid scintillation cocktail (Packard) was added and the radioactivity of RNA synthesized by the enzyme reaction was measured on a liquid scintillation counter.
The HCV polymerase inhibitory activity (IC50) of the compound of the present invention was calculated from the values of radioactivity of the enzyme reaction with and without the test substance. […]

IC50: 160 nM
Compound: O=C(O)c1ccc2c(c1)nc(-c1ccc(OC[C@@H]3CCCN3c3ccccc3)cc1)n2C1CCCCC1 [Example 204, 1-cyclohexyl-2-{4-[{(2S)-1-phenyl-2-pyrrolidinyl}methoxy]-phenyl}benzimidazole-5-carboxylic acid hydrochloride]
